Experimental data: paper PMC6391970, “Design, Synthesis and Characterization of Covalent KDM5 Inhibitors” (Angewandte Chemie (International Ed. in English), 2018)
Where two headings read alike, the source gives them in different places.

Amino acid sequences for entries named in this document (tags omitted). Chains listed by the source or under a name are the forms on record and can include a tag or linker. Residues count along the entry.
UniProt Q9UGL1, 26-101 limits assumed: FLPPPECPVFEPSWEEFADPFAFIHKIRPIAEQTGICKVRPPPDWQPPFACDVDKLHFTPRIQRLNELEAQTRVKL
UniProt Q9UGL1, 374-770 limits assumed: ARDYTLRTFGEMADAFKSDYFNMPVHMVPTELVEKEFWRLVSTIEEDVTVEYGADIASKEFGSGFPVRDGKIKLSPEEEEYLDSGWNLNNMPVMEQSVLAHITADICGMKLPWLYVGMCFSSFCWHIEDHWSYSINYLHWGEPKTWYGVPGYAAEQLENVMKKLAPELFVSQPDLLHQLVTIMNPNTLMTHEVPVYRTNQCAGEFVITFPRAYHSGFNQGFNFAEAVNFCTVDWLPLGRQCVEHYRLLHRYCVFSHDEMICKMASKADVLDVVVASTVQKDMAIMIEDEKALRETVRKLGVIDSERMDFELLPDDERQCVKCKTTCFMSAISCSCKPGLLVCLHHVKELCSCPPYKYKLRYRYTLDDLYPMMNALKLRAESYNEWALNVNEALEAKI
UniProt Q9UGL1, 26-770 with tags or gaps A373G/DEL102-140/DEL143-371/Q372G limits assumed: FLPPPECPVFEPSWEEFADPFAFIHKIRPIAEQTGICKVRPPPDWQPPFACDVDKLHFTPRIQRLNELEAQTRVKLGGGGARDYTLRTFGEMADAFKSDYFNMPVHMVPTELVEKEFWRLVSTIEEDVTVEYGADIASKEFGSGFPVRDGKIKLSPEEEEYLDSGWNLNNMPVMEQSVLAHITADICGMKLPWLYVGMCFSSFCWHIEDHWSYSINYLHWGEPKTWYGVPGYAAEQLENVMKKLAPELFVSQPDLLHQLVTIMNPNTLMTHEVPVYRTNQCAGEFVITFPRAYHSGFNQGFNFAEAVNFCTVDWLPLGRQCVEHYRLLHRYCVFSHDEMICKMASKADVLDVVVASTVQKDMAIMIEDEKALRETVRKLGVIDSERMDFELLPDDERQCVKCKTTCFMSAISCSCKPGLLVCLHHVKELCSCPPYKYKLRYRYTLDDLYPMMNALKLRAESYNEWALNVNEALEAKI
UniProt P41229, whole entry: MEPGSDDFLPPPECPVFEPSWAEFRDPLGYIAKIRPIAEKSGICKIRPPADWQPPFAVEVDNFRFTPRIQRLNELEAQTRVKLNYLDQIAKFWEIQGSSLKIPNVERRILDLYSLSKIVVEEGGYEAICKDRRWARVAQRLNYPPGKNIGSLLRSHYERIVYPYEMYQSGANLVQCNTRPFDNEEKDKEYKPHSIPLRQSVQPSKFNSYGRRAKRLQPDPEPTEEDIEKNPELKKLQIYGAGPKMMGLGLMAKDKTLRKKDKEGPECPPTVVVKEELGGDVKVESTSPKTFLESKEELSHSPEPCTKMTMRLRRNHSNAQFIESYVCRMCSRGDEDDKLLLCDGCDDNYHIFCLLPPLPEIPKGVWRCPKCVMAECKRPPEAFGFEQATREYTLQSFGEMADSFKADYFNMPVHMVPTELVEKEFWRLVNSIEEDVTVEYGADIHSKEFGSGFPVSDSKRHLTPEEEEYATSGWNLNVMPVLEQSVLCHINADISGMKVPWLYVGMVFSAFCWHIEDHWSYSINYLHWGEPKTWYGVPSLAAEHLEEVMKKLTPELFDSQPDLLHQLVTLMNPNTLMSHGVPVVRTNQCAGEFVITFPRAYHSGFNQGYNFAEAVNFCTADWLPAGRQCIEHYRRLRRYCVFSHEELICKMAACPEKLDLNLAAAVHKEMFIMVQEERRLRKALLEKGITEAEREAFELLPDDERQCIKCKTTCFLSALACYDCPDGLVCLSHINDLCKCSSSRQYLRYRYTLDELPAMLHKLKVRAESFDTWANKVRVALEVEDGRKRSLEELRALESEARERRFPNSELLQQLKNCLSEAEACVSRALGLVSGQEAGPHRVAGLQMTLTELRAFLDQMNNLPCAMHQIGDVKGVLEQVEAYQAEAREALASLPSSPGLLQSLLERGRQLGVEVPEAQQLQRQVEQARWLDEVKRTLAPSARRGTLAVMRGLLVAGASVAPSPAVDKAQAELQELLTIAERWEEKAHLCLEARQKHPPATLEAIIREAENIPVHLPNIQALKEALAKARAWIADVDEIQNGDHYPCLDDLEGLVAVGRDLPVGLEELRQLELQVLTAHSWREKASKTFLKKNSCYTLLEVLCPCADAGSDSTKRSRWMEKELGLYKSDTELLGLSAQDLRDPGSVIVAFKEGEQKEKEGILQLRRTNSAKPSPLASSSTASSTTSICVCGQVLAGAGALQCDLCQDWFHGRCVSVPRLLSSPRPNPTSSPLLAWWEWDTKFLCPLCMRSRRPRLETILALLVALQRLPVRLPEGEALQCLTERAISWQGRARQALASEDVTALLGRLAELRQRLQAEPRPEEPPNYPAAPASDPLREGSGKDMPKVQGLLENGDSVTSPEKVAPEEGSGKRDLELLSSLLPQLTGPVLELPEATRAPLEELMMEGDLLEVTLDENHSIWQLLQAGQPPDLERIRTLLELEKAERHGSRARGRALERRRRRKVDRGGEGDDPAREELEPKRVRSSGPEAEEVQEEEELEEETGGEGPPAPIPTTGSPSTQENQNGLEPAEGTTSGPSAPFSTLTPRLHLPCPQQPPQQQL
UniProt Q9Y4C1, whole entry: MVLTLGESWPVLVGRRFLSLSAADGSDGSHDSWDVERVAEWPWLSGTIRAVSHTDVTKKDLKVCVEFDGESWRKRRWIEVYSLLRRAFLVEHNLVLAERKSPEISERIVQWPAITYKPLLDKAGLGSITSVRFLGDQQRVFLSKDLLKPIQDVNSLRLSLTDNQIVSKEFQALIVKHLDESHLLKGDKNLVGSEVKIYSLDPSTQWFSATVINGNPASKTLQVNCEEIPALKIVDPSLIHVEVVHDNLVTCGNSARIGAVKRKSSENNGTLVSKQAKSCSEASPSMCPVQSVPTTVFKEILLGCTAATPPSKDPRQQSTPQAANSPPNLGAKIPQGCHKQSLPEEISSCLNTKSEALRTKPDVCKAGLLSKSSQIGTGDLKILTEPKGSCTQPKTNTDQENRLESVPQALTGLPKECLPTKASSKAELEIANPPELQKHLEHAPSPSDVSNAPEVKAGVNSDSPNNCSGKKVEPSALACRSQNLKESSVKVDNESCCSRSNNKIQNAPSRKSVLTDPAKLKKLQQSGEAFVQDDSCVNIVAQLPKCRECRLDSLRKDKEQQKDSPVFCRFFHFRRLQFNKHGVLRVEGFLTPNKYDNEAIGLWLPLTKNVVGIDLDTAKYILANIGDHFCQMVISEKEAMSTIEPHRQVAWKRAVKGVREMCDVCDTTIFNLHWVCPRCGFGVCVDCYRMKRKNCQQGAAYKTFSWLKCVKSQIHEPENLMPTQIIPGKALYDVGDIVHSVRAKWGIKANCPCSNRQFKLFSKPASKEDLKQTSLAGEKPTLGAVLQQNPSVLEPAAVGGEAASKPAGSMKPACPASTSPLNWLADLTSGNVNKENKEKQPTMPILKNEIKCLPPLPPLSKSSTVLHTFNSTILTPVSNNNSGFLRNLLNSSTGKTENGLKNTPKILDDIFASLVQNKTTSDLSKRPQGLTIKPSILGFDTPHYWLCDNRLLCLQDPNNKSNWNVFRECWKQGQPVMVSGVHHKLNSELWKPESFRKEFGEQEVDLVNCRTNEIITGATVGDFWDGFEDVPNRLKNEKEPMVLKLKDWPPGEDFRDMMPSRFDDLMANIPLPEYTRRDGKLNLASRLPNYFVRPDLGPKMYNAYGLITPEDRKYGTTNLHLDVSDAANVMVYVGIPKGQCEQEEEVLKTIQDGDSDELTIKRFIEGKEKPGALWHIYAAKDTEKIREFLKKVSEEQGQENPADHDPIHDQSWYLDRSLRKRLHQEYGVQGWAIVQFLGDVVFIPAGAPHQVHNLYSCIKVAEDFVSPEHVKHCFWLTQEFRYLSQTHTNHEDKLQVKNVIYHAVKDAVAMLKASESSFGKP
UniProt O94953, whole entry: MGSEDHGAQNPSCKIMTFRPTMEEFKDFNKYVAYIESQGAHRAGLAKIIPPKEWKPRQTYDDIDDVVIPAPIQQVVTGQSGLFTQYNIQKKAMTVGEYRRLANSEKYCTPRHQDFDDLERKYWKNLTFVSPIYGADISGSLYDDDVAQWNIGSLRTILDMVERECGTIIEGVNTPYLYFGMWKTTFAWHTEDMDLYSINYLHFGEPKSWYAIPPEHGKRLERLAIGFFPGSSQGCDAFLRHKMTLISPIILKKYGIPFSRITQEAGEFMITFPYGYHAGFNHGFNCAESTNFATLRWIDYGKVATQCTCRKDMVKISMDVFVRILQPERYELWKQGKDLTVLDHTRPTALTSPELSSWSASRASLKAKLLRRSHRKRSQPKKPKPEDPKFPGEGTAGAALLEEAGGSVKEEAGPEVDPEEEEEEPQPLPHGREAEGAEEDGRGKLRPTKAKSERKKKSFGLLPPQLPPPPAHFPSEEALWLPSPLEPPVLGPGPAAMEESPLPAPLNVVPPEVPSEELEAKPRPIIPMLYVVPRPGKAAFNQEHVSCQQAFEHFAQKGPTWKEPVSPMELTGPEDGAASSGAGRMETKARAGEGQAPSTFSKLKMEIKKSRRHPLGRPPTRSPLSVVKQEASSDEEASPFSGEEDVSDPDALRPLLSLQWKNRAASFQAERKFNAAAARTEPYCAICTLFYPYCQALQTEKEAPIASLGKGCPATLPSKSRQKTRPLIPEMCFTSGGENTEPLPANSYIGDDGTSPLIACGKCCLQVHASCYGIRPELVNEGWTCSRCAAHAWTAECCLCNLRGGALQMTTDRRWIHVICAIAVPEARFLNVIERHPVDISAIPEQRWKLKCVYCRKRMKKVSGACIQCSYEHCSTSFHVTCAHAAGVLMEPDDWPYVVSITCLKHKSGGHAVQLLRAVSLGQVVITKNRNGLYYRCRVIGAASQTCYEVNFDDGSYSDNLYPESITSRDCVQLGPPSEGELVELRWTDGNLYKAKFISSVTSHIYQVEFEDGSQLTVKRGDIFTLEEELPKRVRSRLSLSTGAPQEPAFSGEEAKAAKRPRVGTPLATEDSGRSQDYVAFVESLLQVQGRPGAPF
UniProt O75164, whole entry: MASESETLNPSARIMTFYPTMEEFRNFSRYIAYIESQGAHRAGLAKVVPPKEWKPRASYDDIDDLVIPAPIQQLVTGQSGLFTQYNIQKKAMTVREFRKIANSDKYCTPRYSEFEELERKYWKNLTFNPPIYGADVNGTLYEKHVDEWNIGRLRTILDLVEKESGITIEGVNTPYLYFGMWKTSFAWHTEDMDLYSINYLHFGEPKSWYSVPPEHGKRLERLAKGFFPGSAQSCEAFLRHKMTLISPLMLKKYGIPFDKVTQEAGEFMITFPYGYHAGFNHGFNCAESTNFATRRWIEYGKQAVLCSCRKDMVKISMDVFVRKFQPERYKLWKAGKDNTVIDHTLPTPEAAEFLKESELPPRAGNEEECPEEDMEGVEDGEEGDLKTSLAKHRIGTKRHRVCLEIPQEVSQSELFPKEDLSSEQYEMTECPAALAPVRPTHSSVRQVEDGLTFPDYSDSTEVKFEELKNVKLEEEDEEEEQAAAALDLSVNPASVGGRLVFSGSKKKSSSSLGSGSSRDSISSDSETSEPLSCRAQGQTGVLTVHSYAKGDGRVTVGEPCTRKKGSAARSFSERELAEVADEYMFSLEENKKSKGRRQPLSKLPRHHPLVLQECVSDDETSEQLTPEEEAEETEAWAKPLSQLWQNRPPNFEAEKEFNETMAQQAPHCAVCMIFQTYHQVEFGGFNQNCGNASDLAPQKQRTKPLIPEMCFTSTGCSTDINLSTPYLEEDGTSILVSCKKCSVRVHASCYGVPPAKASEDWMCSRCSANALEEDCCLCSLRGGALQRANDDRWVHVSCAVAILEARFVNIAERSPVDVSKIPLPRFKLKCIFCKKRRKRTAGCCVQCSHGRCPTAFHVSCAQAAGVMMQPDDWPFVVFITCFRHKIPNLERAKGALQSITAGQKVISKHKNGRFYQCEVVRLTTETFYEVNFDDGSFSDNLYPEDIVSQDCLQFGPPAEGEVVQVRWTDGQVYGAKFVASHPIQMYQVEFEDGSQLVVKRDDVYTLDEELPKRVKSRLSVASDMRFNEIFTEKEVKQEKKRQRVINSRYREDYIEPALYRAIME

What was measured:
Caco‐2 cells = test: Caco-2 permeability; format: in vitro ADME; conditions: A to B
KDM5B [1] = biological target: KDM5B (Homo sapiens, UniProt Q9UGL1, A373G/DEL102-140/DEL143-371/Q372G); test: KDM5B 2-OG competition assay (AlphaScreen); format: biochemical; conditions: AlphaScreen in vitro activity in KDM5B
KDM2A = KDM2A (Homo sapiens, UniProt Q9Y2K7); test: KDM AlphaScreen selectivity panel, KDM2A; format: biochemical
KDM4C = KDM4C (Homo sapiens, UniProt Q9H3R0); test: KDM AlphaScreen selectivity panel, KDM4C; format: biochemical; conditions: KDM4C IC50/KDM5B IC50
KDM5B [2] = biological target: KDM5B (Homo sapiens, UniProt Q9UGL1); test: Timecourse KDM5B AlphaScreen inhibition and kinact/Ki calculation; format: biochemical
KDM5A = KDM5A (Homo sapiens, UniProt P29375); test: KDM AlphaScreen selectivity panel, KDM5A; format: biochemical; conditions: KDM5A IC50/KDM5B IC50
KDM5C = KDM5C (Homo sapiens, UniProt P41229); test: KDM AlphaScreen selectivity panel, KDM5C; format: biochemical; conditions: KDM5C IC50/KDM5B IC50
KDM3A = KDM3A (Homo sapiens, UniProt Q9Y4C1); test: KDM AlphaScreen selectivity panel, KDM3A; format: biochemical; conditions: KDM3A IC50/KDM5B IC50
KDM4B = KDM4B (Homo sapiens, UniProt O94953); test: KDM AlphaScreen selectivity panel, KDM4B; format: biochemical; conditions: KDM4B IC50/KDM5B IC50
KDM4A = KDM4A (Homo sapiens, UniProt O75164); test: KDM AlphaScreen selectivity panel, KDM4A; format: biochemical; conditions: KDM4A IC50/KDM5B IC50
KDM6B = KDM6B (Homo sapiens, UniProt O15054); test: KDM AlphaScreen selectivity panel, KDM6B; format: biochemical
KDM5D = KDM5D (Homo sapiens, UniProt Q9BY66); test: KDM AlphaScreen selectivity panel, KDM5D; format: biochemical; conditions: KDM5D IC50/KDM5B IC50
[3] = from time-dependent IC50 values, pre-incubation 0 to 120 min

- P app (Caco‐2 cells): <0.76 10^−6 cm s^−1
- IC50 (KDM5B [1]; read-out: IC50 (2‐OG 1 μM), 2-OG 1 μM): 49 nM
- IC50 (KDM5B [1]; read-out: IC50 (2‐OG 1 mM), 2-OG 1 mM): 41 nM
- SI over KDM5B, 2A (KDM2A; KDM2A IC50/KDM5B IC50): > 677
- IC50 (KDM2A; read-out: KDM IC50 2A, AlphaScreen after 120 min pre-incubation): > 33 µM
- SI over KDM5B, 4C (KDM4C): 29
- kinact/Ki (KDM5B [2]): 6900 M⁻¹ s⁻¹
- kinact/Ki (KDM5B [2]; Table S1): 6.9 ± 0.11 10^3/sM
- Ki (KDM5B [2]; [3]): 691 nM
- kinact (KDM5B [2]; [3]): 48 ± 1.7 10^-4/s
- SI over KDM5B, 5A (KDM5A): 1
- SI over KDM5B, 5C (KDM5C): 40
- SI over KDM5B, 3A (KDM3A): 95
- SI over KDM5B, 4B (KDM4B): 195
- SI over KDM5B, 4A (KDM4A): 97
- SI over KDM5B, 6B (KDM6B; KDM6B IC50/KDM5B IC50): 196
- IC50 (KDM6B; read-out: KDM IC50 6B, AlphaScreen after 120 min pre-incubation): 9.6 µM
- SI over KDM5B, 5D (KDM5D): 4
Compound: CC(C)c1c(-c2ccc(OCCNC(=O)CCl)cc2)[nH]c2c(C#N)cnn2c1=O
